This is an account of results in patent US20050191283A1, “Methods of treating NFAT-related disorders” (priority 2003, published 2005).

This test relates to IFN-γ expression in UCB T lymphocytes. As to the kind of experiment: Intracellular IFN-γ staining in gated CD3+ cells of UCB MNC. In kind it is cell-based, human. The following applies: ConA 24 h, TNF-A (1 ng/ml) or IL-2 added in place of IFN-γ. How it is done:
Human umbilical cord blood from full-term deliveries by vaginal or caesarean sections and adult peripheral blood from healthy donors was collected according to guidelines by the Institutional Review Board at University Hospitals of Cleveland. Mononuclear cells (MNC) were isolated by gradient centrifugation, as previously described (6) and used immediately fresh.
Total MNC were stimulated in bulk culture as previously described (6). Briefly, 2×10^6 cells/ml were stimulated with 2 μg/ml of concanavalin A (ConA) (Sigma Chemical Co, St Louis, Mo.) in complete RPMI medium (Gibco BRL, Gaithersburg, Md.), containing 10% fetal bovine serum (Gibco BRL), 1 mM Sodium-pyruvate, 0.1 mM nonessential amino acids, 10 mM HEPES and 58 μM 2-mercaptoethanol (Sigma Chemical Co), in presence or absence of the manufacturer's recommended concentration of 1 μg/ml of cyclosporin A (CsA) (Sigma Chemical Co), as previously described (7). Where specified, IFN-γ (Roche, Indianapolis, Ind.) was added at indicated concentrations, or neutralizing anti-IFN-γ antibody (R&D Systems, Minneapolis, Minn.) was added at a concentration of 0.25-2 μg/ml. […]
Intracellular IFN-γ staining was performed as described previously (6, 7). […] 20,000-80,000 events were acquired on a calibrated Elite ESP flow cytometer (Coulter, Miami, Fla.) and data were analyzed with WinList software (Verity Software House Inc, Topsham, Minn.). […]

Turning to “IL-2: cytokine added during stimulation as specificity control”, the “upregulation of IFN-γ expression” value is “did not result in upregulation of IFN-γ expression”.
